Results from paper PMC11472320, “Computationally Driven Discovery of a BCR-ABL1 Kinase Inhibitor with Activity in Multidrug-Resistant Chronic Myeloid Leukemia” (Journal of Medicinal Chemistry, 2024).

Sequences of proteins named here, by UniProt entry; tags and fusion partners are left off. A change or cut given only in a name is not applied to a line headed by its entry. Residues count along the entry.
UniProt P31749: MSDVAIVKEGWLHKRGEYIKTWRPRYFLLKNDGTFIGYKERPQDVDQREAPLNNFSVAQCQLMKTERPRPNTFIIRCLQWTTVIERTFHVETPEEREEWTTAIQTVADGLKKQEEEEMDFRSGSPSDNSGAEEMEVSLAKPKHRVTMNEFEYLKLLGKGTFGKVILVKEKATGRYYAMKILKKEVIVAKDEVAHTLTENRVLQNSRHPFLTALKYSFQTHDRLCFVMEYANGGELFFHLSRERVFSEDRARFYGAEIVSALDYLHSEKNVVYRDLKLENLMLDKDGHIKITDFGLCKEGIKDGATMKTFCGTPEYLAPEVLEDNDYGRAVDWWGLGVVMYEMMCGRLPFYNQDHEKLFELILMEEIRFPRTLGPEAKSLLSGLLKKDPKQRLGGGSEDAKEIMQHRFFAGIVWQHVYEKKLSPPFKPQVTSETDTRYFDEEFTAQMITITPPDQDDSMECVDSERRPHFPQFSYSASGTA
UniProt P52333, 822-1111 limits assumed: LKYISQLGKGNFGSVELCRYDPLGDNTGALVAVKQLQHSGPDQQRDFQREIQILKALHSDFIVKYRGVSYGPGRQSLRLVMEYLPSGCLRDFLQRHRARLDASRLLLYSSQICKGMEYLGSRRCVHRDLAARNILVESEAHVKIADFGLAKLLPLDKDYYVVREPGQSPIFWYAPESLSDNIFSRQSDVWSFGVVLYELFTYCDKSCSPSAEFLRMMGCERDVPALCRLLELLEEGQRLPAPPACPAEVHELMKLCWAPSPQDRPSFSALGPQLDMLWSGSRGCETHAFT
UniProt P53779: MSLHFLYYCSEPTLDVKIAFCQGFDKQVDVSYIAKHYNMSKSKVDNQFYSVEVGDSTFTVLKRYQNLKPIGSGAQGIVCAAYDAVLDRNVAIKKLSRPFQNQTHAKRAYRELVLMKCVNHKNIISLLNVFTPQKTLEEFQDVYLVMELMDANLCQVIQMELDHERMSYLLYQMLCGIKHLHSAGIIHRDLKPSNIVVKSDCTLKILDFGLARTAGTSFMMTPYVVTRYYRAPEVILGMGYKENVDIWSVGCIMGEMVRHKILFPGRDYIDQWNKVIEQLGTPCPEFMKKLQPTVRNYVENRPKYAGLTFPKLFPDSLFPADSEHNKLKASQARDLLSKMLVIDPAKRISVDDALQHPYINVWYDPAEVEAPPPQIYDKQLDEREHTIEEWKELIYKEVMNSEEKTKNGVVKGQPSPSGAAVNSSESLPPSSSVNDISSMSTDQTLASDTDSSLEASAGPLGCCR
UniProt Q96PY6: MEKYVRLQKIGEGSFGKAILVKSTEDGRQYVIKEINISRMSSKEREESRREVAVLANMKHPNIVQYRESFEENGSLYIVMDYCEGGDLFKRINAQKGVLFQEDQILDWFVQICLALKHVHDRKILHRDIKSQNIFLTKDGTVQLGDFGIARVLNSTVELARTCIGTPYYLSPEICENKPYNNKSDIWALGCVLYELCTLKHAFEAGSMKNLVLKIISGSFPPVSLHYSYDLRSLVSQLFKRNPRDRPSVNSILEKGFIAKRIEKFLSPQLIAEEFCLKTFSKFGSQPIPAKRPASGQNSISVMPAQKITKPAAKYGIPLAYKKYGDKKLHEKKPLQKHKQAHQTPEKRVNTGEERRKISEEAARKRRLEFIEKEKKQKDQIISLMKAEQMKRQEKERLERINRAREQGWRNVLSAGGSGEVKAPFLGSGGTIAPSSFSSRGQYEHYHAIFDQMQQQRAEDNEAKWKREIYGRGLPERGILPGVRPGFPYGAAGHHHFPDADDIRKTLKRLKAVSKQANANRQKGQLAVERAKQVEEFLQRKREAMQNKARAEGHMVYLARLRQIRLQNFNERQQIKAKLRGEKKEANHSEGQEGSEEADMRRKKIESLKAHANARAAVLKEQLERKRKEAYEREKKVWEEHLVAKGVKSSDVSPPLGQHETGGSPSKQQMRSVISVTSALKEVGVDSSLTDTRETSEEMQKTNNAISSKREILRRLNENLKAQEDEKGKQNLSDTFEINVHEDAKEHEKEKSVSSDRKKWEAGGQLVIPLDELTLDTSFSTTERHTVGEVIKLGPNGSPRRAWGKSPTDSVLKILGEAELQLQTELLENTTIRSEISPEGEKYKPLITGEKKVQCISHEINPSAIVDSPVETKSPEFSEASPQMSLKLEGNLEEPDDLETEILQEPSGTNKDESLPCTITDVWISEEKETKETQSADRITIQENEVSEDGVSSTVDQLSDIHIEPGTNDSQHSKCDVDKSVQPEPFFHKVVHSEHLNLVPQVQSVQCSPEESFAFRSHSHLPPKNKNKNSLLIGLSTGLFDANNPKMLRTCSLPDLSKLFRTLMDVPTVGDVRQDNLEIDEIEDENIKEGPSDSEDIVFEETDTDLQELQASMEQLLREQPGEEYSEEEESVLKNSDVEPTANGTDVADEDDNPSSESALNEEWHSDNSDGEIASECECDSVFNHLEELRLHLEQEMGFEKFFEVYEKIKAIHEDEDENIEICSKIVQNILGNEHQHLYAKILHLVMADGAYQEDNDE
UniProt Q8IY84: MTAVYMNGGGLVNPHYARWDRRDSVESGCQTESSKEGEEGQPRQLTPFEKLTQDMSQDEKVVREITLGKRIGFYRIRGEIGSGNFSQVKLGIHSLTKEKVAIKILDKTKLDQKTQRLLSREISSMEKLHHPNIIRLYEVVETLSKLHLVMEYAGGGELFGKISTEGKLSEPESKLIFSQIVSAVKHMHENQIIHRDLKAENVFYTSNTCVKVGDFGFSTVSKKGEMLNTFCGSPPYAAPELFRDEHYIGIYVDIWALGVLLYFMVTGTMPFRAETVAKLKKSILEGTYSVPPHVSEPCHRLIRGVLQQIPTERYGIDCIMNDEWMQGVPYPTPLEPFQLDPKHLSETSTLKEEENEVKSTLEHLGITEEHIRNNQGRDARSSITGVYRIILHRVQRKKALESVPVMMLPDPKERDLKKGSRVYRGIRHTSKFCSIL
UniProt P48736: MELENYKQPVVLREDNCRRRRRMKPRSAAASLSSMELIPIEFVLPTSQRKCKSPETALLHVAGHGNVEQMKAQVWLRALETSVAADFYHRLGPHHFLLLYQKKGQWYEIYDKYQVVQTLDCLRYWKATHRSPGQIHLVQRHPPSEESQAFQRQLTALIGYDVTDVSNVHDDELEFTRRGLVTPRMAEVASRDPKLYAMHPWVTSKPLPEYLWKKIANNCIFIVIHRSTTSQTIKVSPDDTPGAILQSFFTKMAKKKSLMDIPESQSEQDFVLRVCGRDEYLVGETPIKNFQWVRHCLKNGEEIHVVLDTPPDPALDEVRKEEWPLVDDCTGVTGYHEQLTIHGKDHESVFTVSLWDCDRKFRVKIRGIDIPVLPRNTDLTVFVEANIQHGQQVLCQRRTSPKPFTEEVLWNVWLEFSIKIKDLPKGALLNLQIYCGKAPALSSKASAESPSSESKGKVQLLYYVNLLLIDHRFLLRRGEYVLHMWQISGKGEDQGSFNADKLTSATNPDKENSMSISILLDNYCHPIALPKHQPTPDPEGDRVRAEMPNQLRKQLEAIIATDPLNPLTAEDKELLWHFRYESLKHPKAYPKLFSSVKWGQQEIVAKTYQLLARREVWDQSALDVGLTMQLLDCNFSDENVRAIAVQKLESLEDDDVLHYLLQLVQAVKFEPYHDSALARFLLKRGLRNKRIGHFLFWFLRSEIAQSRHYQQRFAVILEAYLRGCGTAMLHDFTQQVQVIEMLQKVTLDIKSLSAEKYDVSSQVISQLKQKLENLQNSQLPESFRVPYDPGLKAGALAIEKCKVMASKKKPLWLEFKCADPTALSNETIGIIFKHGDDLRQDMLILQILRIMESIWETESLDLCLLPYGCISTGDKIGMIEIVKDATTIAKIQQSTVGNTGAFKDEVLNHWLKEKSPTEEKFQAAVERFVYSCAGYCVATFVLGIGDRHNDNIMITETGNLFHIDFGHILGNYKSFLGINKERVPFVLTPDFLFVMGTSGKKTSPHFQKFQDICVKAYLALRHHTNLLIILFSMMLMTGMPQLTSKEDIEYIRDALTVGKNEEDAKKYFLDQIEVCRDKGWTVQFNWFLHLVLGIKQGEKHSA
UniProt O75676, 33-301 limits assumed: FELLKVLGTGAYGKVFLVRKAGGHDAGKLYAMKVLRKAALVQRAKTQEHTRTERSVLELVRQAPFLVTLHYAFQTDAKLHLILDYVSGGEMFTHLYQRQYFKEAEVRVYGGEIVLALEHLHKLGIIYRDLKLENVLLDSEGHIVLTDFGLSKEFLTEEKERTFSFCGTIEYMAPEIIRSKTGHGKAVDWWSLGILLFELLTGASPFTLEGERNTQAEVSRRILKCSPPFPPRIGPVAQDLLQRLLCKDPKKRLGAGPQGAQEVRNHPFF
UniProt Q59H18: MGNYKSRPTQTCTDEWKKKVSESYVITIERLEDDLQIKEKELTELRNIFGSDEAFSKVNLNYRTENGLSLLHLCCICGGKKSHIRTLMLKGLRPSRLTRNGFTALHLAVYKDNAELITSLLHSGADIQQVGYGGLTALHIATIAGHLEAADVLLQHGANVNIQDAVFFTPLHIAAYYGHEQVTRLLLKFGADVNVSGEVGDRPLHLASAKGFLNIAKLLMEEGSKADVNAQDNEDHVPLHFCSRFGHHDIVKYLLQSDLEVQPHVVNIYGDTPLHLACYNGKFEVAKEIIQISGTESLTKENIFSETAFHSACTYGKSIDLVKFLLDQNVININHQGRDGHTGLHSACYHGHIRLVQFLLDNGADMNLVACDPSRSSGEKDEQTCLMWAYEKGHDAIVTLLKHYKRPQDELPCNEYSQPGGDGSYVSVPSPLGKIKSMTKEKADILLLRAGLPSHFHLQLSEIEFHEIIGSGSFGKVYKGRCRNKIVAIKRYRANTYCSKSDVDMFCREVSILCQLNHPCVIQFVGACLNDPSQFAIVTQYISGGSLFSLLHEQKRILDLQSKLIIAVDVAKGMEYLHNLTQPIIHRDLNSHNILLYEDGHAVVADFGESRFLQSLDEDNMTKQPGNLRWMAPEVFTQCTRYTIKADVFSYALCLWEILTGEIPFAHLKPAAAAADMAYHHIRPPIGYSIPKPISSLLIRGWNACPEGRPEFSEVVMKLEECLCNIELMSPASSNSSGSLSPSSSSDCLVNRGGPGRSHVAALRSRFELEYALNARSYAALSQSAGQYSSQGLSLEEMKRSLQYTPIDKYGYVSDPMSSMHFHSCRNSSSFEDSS
UniProt Q16620, 32-822: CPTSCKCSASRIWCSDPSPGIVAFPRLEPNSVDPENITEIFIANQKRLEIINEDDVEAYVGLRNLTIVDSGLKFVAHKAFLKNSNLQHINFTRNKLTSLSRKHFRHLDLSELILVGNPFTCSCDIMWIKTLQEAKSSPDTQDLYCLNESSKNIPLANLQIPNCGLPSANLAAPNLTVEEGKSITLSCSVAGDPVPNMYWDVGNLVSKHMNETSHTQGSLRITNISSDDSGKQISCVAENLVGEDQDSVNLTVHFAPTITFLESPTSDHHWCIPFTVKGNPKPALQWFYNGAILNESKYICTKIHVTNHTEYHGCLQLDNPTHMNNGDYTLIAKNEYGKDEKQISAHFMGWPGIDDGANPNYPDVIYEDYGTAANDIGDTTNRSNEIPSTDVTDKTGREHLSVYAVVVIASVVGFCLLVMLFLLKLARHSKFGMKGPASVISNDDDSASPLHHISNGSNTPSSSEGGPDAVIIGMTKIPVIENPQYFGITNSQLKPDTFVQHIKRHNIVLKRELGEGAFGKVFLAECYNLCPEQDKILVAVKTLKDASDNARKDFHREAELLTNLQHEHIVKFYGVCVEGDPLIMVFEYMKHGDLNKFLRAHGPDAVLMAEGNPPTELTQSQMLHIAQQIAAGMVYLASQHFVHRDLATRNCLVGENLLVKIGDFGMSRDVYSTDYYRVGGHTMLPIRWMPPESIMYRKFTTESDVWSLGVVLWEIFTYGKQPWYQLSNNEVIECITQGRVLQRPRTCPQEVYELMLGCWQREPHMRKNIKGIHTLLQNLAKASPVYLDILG
UniProt Q6PHR2: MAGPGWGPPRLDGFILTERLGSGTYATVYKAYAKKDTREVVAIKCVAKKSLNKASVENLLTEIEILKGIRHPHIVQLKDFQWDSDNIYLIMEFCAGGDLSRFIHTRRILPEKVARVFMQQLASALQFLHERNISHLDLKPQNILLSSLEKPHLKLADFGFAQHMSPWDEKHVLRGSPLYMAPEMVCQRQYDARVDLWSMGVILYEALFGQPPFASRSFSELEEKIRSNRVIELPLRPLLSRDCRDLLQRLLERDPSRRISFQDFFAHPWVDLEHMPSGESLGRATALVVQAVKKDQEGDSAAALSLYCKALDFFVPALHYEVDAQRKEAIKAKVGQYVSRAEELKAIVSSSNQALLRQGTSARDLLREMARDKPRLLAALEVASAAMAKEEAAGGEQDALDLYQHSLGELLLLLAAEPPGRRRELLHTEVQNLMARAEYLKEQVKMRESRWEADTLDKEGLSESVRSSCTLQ

Experiments:
Assay in all cases: biochemical
Conditions in all cases: read-out: Percent Control
AKT1 = AKT1 (Homo sapiens, UniProt P31749)
ANKK1 = ANKK1 (Homo sapiens, UniProt Q8NFD2)
BMPR2 = BMPR2 (Homo sapiens, UniProt Q13873)
CAMK2A = CAMK2A (Homo sapiens, UniProt Q9UQM7)
CAMKK2 = CAMKK2 (Homo sapiens, UniProt Q96RR4)
CASK = CASK (Homo sapiens, UniProt O14936)
CDKL5 = CDKL5 (Homo sapiens, UniProt O76039)
DRAK1 = DRAK1 (Homo sapiens, UniProt Q9UEE5)
EGFR(L858R,T790M) = EGFR(L858R,T790M) (Homo sapiens, UniProt P00533, L858R/T790M)
EGFR(T790M) = EGFR(T790M) (Homo sapiens, UniProt P00533, T790M)
EIF2AK1 = EIF2AK1 (Homo sapiens, UniProt Q9BQI3)
EPHB6 = EPHB6 (Homo sapiens, UniProt O15197)
ERK1 = ERK1 (Homo sapiens, UniProt P27361)
FLT3(D835Y) = FLT3(D835Y) (Homo sapiens, UniProt P36888, D835Y)
HIPK3 = HIPK3 (Homo sapiens, UniProt Q9H422)
[1] = molecular target: JAK1(JH1domain-catalytic) (Homo sapiens, UniProt P23458)
[2] = molecular target: JAK3(JH1domain-catalytic) (Homo sapiens, UniProt P52333)
JNK3 = JNK3 (Homo sapiens, UniProt P53779)
MAP3K15 = MAP3K15 (Homo sapiens, UniProt Q6ZN16)
MAP3K4 = MAP3K4 (Homo sapiens, UniProt Q9Y6R4)
MARK2 = MARK2 (Homo sapiens, UniProt Q7KZI7)
MEK3 = MEK3 (Homo sapiens, UniProt P46734)
MELK = MELK (Homo sapiens, UniProt Q14680)
MST1 = MST1 (Homo sapiens, UniProt Q13043)
NEK1 = NEK1 (Homo sapiens, UniProt Q96PY6)
NEK9 = NEK9 (Homo sapiens, UniProt Q8TD19)
NIM1 = NIM1 (Homo sapiens, UniProt Q8IY84)
PIK3CA = PIK3CA (Homo sapiens, UniProt P42336)
PIK3CG = PIK3CG (Homo sapiens, UniProt P48736)
PRKG2 = PRKG2 (Homo sapiens, UniProt Q13237)
RET = RET (Homo sapiens, UniProt P07949)
RIOK1 = RIOK1 (Homo sapiens, UniProt Q9BRS2)
ROCK2 = ROCK2 (Homo sapiens, UniProt O75116)
[3] = molecular target: RPS6KA4(Kin.Dom.1-N-terminal) (Homo sapiens, UniProt O75676)
[4] = molecular target: RSK1(Kin.Dom.2-C-terminal) (Homo sapiens, UniProt Q15418)
TGFBR1 = TGFBR1 (Homo sapiens, UniProt P36897)
TLK1 = TLK1 (Homo sapiens, UniProt Q9UKI8)
TNNI3K = TNNI3K (Homo sapiens, UniProt Q59H18)
TRKB = TRKB (Homo sapiens, UniProt Q16620)
ULK3 = ULK3 (Homo sapiens, UniProt Q6PHR2)
WNK4 = WNK4 (Homo sapiens, UniProt Q96J92)
YANK2 = YANK2 (Homo sapiens, UniProt Q9NY57)
YANK3 = YANK3 (Homo sapiens, UniProt Q86UX6)

Question: How did the remaining activity at 1 µM (AKT1) turn out when COc1cc2c(Nc3ccc(Cl)c(OC)n3)c(C#N)cnc2cc1OCCON1CCN(C)CC1 [16a, 4-((5-Chloro-6-methoxypyridin-2-yl)amino)-6-methoxy-7-(2-((4-methylpiperazin-1-yl)oxy)ethoxy)quinoline-3-carbonitrile] was run?
Answer: 100%

Question: And the remaining activity at 1 µM (ANKK1)?
Answer: 97%

Question: And the remaining activity at 1 µM (BMPR2)?
Answer: 29%

Question: What about the remaining activity at 1 µM (CAMK2A) of the same compound?
Answer: 44%

Question: And the remaining activity at 1 µM (CAMKK2)?
Answer: 32%

Question: And the remaining activity at 1 µM (CASK)?
Answer: 68%

Question: And the remaining activity at 1 µM (CDKL5)?
Answer: 100%

Question: What about the remaining activity at 1 µM (DRAK1) of the same compound?
Answer: 91%

Question: What about the remaining activity at 1 µM (EGFR(L858R,T790M)) of the same compound?
Answer: 29%

Question: And the remaining activity at 1 µM (EGFR(T790M))?
Answer: 21%

Question: And the remaining activity at 1 µM (EIF2AK1)?
Answer: 2.6%

Question: What about the remaining activity at 1 µM (EPHB6) of the same compound?
Answer: 73%

Question: And the remaining activity at 1 µM (ERK1)?
Answer: 100%

Question: And the remaining activity at 1 µM (FLT3(D835Y))?
Answer: 13%

Question: And the remaining activity at 1 µM (HIPK3)?
Answer: 90%

Question: What about the remaining activity at 1 µM [1] of the same compound?
Answer: 100%

Question: What about the remaining activity at 1 µM [2] of the same compound?
Answer: 3.1%

Question: And the remaining activity at 1 µM (JNK3)?
Answer: 100%

Question: And the remaining activity at 1 µM (MAP3K15)?
Answer: 100%

Question: And the remaining activity at 1 µM (MAP3K4)?
Answer: 2.6%

Question: And the remaining activity at 1 µM (MARK2)?
Answer: 32%

Question: What about the remaining activity at 1 µM (MEK3) of the same compound?
Answer: 36%

Question: And the remaining activity at 1 µM (MELK)?
Answer: 65%

Question: What about the remaining activity at 1 µM (MST1) of the same compound?
Answer: 20%

Question: And the remaining activity at 1 µM (NEK1)?
Answer: 62%

Question: And the remaining activity at 1 µM (NEK9)?
Answer: 87%

Question: And the remaining activity at 1 µM (NIM1)?
Answer: 5.5%

Question: And the remaining activity at 1 µM (PIK3CA)?
Answer: 100%

Question: What about the remaining activity at 1 µM (PIK3CG) of the same compound?
Answer: 97%

Question: And the remaining activity at 1 µM (PRKG2)?
Answer: 100%

Question: And the remaining activity at 1 µM (RET)?
Answer: 48%

Question: What about the remaining activity at 1 µM (RIOK1) of the same compound?
Answer: 16%

Question: And the remaining activity at 1 µM (ROCK2)?
Answer: 8.6%

Question: What about the remaining activity at 1 µM [3] of the same compound?
Answer: 95%

Question: And the remaining activity at 1 µM [4]?
Answer: 81%

Question: What about the remaining activity at 1 µM (TGFBR1) of the same compound?
Answer: 100%

Question: And the remaining activity at 1 µM (TLK1)?
Answer: 55%

Question: What about the remaining activity at 1 µM (TNNI3K) of the same compound?
Answer: 30%

Question: And the remaining activity at 1 µM (TRKB)?
Answer: 69%

Question: And the remaining activity at 1 µM (ULK3)?
Answer: 0.55%

Question: What about the remaining activity at 1 µM (WNK4) of the same compound?
Answer: 100%

Question: What about the remaining activity at 1 µM (YANK2) of the same compound?
Answer: 100%

Question: What about the remaining activity at 1 µM (YANK3) of the same compound?
Answer: 79%
